In this experiment the target is JAK2 (JH1domain-catalytic, Y1007F,Y1008F) kinase (Homo sapiens (Human), UniProt O60674, Y1007F/Y1008F). Briefly: JAK2 Binding Assay (JAK2 JH1 Domain Binding Assay). The settings on record: read-out: JAK2 Kd, qPCR readout. Here is the method:
JAK2 (JH1domain-catalytic, Y1007F,Y1008F) kinase was expressed as N-terminal fusion to the DNA binding domain of NFkB in transiently transfected HEK293 cells and subsequently tagged with DNA for qPCR detection. Streptavidin-coated magnetic beads were treated with biotinylated small molecule ligands for 30 minutes at room temperature to generate affinity resins for kinase assays. The liganded beads were blocked with excess biotin and washed with blocking buffer (SeaBlock (Pierce), 1% BSA, 0.05% Tween 20, 1 mmol/L DTT) to remove unbound ligand and to reduce nonspecific phage binding. Binding reactions were assembled by combining kinases, liganded affinity beads, and test compounds in 1× binding buffer (1×PBS, 0.05% Tween 20, 0.1% BSA, 1 mmol/L DTT). Test compound was prepared as 111× stocks in 100% DMSO and directly diluted into the assay wells. All reactions were performed in polypropylene 384-well plates in a final volume of 0.02 mL. The assay plates were incubated at room temperature with shaking for 1 hour and the affinity beads were washed with wash buffer (1×PBS, 0.05% Tween 20). The beads were then re-suspended in elution buffer (1×PBS, 0.05% Tween 20, 0.5 μmol/L non-biotinylated affinity ligand) and incubated at room temperature with shaking for 30 minutes. The kinase concentration in the eluate was measured by qPCR.
A general note: Real-time PCR tracks product formation cycle by cycle.

Chains of the proteins cited; added tags and fusions are not shown. Residues count along the entry.
UniProt O60674, 849-1124 Y1007F/Y1008F limits assumed: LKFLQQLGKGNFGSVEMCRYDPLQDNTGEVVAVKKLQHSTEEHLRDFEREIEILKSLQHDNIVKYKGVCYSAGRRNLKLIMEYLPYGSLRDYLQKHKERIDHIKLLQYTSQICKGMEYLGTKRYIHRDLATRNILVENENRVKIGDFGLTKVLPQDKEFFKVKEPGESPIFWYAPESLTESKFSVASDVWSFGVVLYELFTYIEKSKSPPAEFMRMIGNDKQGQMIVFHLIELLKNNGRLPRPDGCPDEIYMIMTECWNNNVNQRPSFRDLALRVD

Some compounds may have been tested in ways that are not shown here. A value given as a limit tells only on which side of the number the result lay.

For orientation: Kd means the equilibrium constant for the complex coming apart.

“(R)—N-(4-((2-((5-(tert-butyl)-1-(tetrahydrofuran-3-yl)-1H-pyrazol-3-yl)amino)-1-methyl-1H-imidazo[4,5-b]pyridin-6-0)oxy)pyridin-2-yl)-3-methoxyazetidine-1-carboxamide”: the Kd is < 10 nM.

(Values after patent US11691963B2, “6-heteroaryloxy benzimidazoles and azabenzimidazoles as JAK2 inhibitors” (Ajax Therapeutics, Inc., priority 2020, dated 2023).)
